These results are taken from ChEMBL document CHEMBL4477207, “Discovery of Novel 3-Quinoline Carboxamides as Potent, Selective, and Orally Bioavailable Inhibitors of Ataxia Telangiectasia Mutated (ATM) Kinase” (J Med Chem, 2016).

Protein sequences, listed by entry. Tags and fused reporters are not part of them. Lines headed by an entry give the natural chain unless they say otherwise; changes in a name come on top.
UniProt Q13315: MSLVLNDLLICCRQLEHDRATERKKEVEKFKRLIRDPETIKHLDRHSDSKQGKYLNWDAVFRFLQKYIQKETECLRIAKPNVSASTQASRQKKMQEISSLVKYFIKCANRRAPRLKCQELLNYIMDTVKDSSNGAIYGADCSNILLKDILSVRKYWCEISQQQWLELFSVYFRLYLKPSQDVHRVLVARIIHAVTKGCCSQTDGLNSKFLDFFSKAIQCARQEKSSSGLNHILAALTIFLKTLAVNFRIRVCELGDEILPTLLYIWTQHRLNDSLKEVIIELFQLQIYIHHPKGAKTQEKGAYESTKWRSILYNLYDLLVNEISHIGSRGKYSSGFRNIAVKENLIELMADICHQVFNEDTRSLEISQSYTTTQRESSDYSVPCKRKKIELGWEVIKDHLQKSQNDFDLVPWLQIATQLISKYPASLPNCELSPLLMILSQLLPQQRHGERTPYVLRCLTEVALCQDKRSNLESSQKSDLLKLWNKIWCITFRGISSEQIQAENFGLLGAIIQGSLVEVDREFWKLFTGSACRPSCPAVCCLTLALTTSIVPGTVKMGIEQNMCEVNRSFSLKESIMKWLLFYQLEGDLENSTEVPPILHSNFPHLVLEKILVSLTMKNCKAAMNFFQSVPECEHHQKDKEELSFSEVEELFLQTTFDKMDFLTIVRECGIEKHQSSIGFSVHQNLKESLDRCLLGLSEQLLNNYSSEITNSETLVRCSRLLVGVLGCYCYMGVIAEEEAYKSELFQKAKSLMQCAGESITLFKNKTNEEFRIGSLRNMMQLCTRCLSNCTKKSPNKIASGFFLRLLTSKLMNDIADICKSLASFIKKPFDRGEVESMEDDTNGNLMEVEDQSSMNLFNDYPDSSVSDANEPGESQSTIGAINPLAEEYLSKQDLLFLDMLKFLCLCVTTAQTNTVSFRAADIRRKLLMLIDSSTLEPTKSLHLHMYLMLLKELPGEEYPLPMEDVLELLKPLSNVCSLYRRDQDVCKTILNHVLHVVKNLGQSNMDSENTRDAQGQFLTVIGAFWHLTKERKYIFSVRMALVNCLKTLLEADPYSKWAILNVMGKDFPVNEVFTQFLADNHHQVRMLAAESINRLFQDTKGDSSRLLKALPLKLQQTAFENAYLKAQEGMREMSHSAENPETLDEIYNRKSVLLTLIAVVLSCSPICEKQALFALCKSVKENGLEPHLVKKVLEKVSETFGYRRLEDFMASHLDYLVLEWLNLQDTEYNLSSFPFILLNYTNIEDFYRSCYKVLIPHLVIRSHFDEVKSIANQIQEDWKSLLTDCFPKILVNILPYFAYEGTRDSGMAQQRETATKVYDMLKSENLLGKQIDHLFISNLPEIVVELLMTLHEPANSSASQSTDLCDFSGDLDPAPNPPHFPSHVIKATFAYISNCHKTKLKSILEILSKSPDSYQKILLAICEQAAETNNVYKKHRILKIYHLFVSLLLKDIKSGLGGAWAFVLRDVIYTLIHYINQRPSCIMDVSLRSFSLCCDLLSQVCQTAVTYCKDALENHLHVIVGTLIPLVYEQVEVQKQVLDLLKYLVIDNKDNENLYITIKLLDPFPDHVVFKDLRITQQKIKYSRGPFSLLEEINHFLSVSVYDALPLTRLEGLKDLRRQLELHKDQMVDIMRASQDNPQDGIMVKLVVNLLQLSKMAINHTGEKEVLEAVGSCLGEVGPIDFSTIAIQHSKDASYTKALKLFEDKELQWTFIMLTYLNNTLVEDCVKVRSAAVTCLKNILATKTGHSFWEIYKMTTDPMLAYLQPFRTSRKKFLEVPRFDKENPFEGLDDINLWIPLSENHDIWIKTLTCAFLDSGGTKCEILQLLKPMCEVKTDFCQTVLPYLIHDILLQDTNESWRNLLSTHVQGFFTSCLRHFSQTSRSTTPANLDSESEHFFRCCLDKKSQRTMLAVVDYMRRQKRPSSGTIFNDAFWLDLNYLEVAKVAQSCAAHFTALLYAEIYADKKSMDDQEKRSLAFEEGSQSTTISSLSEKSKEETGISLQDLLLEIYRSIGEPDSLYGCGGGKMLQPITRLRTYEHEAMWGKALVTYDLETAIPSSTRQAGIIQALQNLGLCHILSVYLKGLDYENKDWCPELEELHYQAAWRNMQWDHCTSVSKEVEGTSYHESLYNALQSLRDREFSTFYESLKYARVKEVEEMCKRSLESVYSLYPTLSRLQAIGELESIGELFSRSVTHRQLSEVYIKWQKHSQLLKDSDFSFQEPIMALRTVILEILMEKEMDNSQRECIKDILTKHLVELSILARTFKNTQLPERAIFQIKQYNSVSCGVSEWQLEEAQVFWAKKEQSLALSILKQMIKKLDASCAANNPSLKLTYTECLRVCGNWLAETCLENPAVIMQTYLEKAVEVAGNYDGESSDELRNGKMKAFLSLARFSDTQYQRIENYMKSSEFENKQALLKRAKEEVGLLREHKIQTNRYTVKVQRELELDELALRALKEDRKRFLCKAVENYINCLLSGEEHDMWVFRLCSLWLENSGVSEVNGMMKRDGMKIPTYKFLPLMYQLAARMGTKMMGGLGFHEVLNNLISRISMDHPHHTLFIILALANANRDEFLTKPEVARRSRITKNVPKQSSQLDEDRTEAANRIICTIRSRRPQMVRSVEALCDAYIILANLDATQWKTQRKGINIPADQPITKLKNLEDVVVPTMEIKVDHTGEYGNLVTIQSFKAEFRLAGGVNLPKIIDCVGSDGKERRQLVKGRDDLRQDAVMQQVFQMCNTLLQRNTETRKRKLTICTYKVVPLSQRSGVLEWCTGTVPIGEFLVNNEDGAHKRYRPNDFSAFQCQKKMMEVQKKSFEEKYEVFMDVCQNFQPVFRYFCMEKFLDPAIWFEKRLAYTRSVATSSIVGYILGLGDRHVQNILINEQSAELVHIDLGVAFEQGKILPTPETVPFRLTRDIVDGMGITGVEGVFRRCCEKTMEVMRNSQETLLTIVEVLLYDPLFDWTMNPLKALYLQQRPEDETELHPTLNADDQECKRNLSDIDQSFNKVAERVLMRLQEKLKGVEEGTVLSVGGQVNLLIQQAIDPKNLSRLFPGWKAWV

One may read the IC50 as the concentration at which inhibition is half-maximal. Lower therefore signals greater potency.

In this assay the target is Serine-protein kinase ATM (Homo sapiens, UniProt Q13315). Kind of assay: Inhibition of ATM phosphorylation at Ser-1981 residue in human HT-29 cells incubated for 1 hr followed by X-ray irradiation by Hoechst staining based fluorescence plate reader analysis. It is filed as cell-based.

In turn, `COCc1ccc(-c2cc3c(N[C@@H](C)c4ccn(C)n4)c(C(N)=O)cnc3cc2F)c(F)n1` displayed an IC50 of 73 nM.
